# Reference: ChEMBL document CHEMBL5584335, “Investigating Active Site Binding of Ligands to High and Low Activity Carbonic Anhydrase Enzymes Using Native Mass Spectrometry” (J Med Chem, 2024)
# Chains of the proteins cited; added tags and fusions are not shown. Lines headed by an entry give the natural chain unless they say otherwise; changes in a name come on top.
# UniProt P07451: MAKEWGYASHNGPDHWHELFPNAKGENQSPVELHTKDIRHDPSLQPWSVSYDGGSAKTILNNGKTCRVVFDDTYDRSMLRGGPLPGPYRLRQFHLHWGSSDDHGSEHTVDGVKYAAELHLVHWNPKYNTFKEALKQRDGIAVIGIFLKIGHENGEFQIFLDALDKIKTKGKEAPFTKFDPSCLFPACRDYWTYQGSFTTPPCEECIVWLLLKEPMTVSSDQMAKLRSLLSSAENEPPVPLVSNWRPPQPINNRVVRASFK
# Target: Carbonic anhydrase 3 (Homo sapiens, UniProt P07451)
# Assay: Binding affinity to human recombinant CA III active site expressed in Escherichia coli BL21 (DE3) pLysS cells at 18.18 uM at protein:compound ratio of 1:2 incubated for 30 mins by native mass spectrometry analysis
row,Activity,SMILES
1,inactive,NS(=O)(=O)c1cc2c(cc1Cl)NC(C(Cl)Cl)NS2(=O)=O (configuration not stated)
2,inactive,NS(=O)(=O)c1cc2c(cc1C(F)(F)F)NC(Cc1ccccc1)NS2(=O)=O (configuration not stated)

# Calls of active or inactive are those of the source. No cut-off for these calls is given here.
